# Values of other authors as cited in article PMC7559231, “Drug-induced cholestasis assay in primary hepatocytes” (MethodsX, 2020).
# Tested on: sandwich-cultured human hepatocytes
# Settings: cited from earlier work
Compound,DICI 24 h Mean,"DICI 48 h Mean (50 µM test compound, 48 h exposure, SCHH, ref [6],[7])"
"O=C(O)Cc1ccccc1Nc1c(Cl)cccc1Cl [Diclofenac, diclofenac]",1.18,
"CCc1ccc(CCOc2ccc(CC3SC(=O)NC3=O)cc2)nc1 (centres unmarked) [Pioglitazone, pioglitazone]",,1.06
